Patent US10464912B2, “Choline cocrystal of epalrestat” (BIONEVIA PHARMACEUTICALS, INC., priority 2008, dated 2019)

Settings: FIG. 6B

SMILES: CC(/C=C1\SC(=S)N(CC(=O)O)C1=O)=C\c1ccccc1 [choline hydrogen diepalrestat]
- solubility in water compared with epalrestat free acid: greater solubility in water than the free acid
